Assay results taken from publication PMC11345828 (Journal of Medicinal Chemistry, 2024).

Legend:
[1] = system: NCI-H929 cell line-derived MM xenograft; test: NCI-H929 subcutaneous multiple myeloma xenograft model; type: in vivo, mouse; conditions: single dose IV
Protocol: Caspase-Glo 3/7 Assay (PROMEGA #G8090) was performed according to manufacturer’s instructions using 200 ng of sample lysate in a total volume of 100 μL per well. 100 μL of the GLO reagent were added, mixed, and incubated for 90 min at room temperature. The plate was measured on an EnSpireTM Plate reader (luminescence, 0.1s).
Female BomTac:NMRI-Foxn1nu mice and CB17/Icr-Prkdc(scid)/IcrCrl and were obtained from Taconic Denmark at an age of 6–8 weeks. After arrival of the local animal facility at Boehringer Ingelheim RCV GmbH & Co KG mice were allowed to adjust to housing conditions at least for 5 days before the start of the experiment. Mice were group-housed under pathogen-free and controlled environmental conditions and handled according to the institutional, governmental and European Union guidelines (Austrian Animal Protection Laws, GV-SOLAS and FELASA guidelines). Animal studies were approved by the internal ethics committee and the local governmental committee. To establish subcutaneous tumors mice were injected with 5 × 10^6 A427cells in Matrigel (CB17/Icr-Prkdc(scid)/IcrCrl), 1 × 10^6 NCI-H1048 cells in Matrigel (BomTac:NMRI-Foxn1nu and 5 × 10^6 NCI-H929 cells in Matrigel (CB17/Icr-Prkdc(scid)/IcrCrl). Tumor diameters were measured with a caliper three times a week. The volume of each tumor [in mm^3] was calculated according to the formula “tumor volume = length × diameter^2 × π/6.” To monitor side effects of treatment, mice were inspected daily for abnormalities and body weight was determined three times per week. Animals were sacrificed when the tumors reached a size of 1500 mm^3. […] Tumors were reported as regressing when the tumor volume at a given day was below the tumor volume at treatment start.

[2] = system: A427 cell line-derived NSCLC xenograft; test: A427 NSCLC subcutaneous xenograft model; type: in vivo, mouse; conditions: 26 at 60 mg/kg q7d IV, single agent
Protocol: After fixation, tumor samples were embedded in paraffin blocks. Two-μm thick sections of each FFPE-block were prepared on a microtome, placed on glass slides and dewaxed. H&E staining was performed using Papanicolaous Solution 1a Harris′ Hematoxylin solution (Merck) and Shandon Eosin Y aqueous (Thermo) on the Gemini stainer (Thermo). […] Analysis was performed using HALO image analysis software 2.1 (Indica Laboratories). Quantification of Ki67 positivity was performed using multiplex IHC module with integrated AI based nucleus detection and a threshold set for positive nuclei was used. Viable tumor area was calculated from H&E staining using AI based classifier Densenet V2.
Female BomTac:NMRI-Foxn1nu mice and CB17/Icr-Prkdc(scid)/IcrCrl and were obtained from Taconic Denmark at an age of 6–8 weeks. After arrival of the local animal facility at Boehringer Ingelheim RCV GmbH & Co KG mice were allowed to adjust to housing conditions at least for 5 days before the start of the experiment. Mice were group-housed under pathogen-free and controlled environmental conditions and handled according to the institutional, governmental and European Union guidelines (Austrian Animal Protection Laws, GV-SOLAS and FELASA guidelines). Animal studies were approved by the internal ethics committee and the local governmental committee. […]

MV-4-11 cells = conditions: IP, 75 mg/kg QDx21; cited from earlier work
NCI-H929 cell line = system: NCI-H929 cell line
Protocol: NCI-H1048 were cultured in custom medium prepared by PanBioTech containing DMEM/F12 + 5% fetal calf serum, 0.005 mg/mL insulin, 0.01 mg/mL transferrin, 30 nM sodium selenite, 10 nM hydrocortisone, 10 nM β-estradiol and […] 2 mM L-glutamine.
Suspension cells were plated immediately before compound addition. Adherent cell lines were incubated overnight at 37 °C in a tissue culture incubator prior to compound addition. Compounds were added in triplicates using an HP D300e Digital Dispenser (Hewlett-Packard) or manually at the concentrations indicated and total volumes were normalized using dimethyl sulfoxide (DMSO) backfill, with final DMSO concentration of 0.5%. Control wells were treated with DMSO only.

COc1c(OCC2CCOCC2)cc(N2C[C@@H](C)n3c(c(CCCOc4cc(C)c(Cl)c(C)c4)c4ccc(Cl)c(-c5c(C)nc(C)nc5C)c43)C2=O)c2c1cc(C(=O)O)n2C [Compound 26, (R)-7-(7-Chloro-10-(3-(4-chloro-3,5-dimethylphenoxy)propyl)-4-methyl-1-oxo-6-(2,4,6-trimethylpyrimidin-5-yl)-3,4-dihydropyrazino[1,2-a]indol-2(1H)-yl)-4-methoxy-1-methyl-5-((tetrahydro-2H-pyran-4-yl)methoxy)-1H-indole-2-carboxylic Acid]
Tumor regressions d21 ([1]; 60 mg/kg): 0 x/8
tumor regression persisted until day after dosing start ([1]; 60 mg/kg): 7 days
Tumor regressions d21 ([1]; 80 mg/kg): 6 x/8
tumor regression persisted until day ([1]; 80 mg/kg): 15 days
Tumor regressions d21 [2]: 1 x/8
tumor outgrowth occurring around day after treatment start [2]: ~7 days
impact on tumor growth in vivo (NCI-H1048 SCLC xenograft; 26 alone): no impact on tumor growth
Tumor regression d16 (NCI-H1048 SCLC xenograft; 26 at 60 mg/kg q7d): 0 x/8

Cc1cc(OCCCc2c3n(c4c(-c5c(C)nn(C)c5C)c(Cl)ccc24)[C@H](C)CN(c2cn(C)c4ccc(C(=O)O)cc24)C3=O)cc(C)c1Cl [Compound 9]
tumor burden in blood, bone marrow, and spleen (MV-4-11 cells): nearly eliminated MV-4-11 cells

COc1ccc(N2C[C@@H](C)n3c(c(CCCOc4cc(C)c(Cl)c(C)c4)c4ccc(Cl)c(-c5c(C)nn(C)c5C)c43)C2=O)c2c1cc(C(=O)O)n2C [Compound 13, (R)-7-(7-Chloro-10-(3-(4-chloro-3,5-dimethylphenoxy)propyl)-4-methyl-1-oxo-6-(1,3,5-trimethyl-1H-pyrazol-4-yl)-3,4-dihydropyrazino[1,2-a]indol-2(1H)-yl)-4-methoxy-1-methyl-1H-indole-2-carboxylic Acid]
improvement in NCI-H929 GI50 relative to 10 (NCI-H929 cell line): ~2 fold
